MITF act: MITF TRPM1 promoter activation in melanoma cells; SK-MEL-5 TRPM1-promoter luciferase, 24 h; % of positive control, neutral wells = 0; activation, % at 12.5 µM; 300,000 compounds, 0.75% hits; AID 588334;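 active means mean activation of at least 80% with every replicate also reaching 80%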
MITF TRPM1 inh: reduces MITF-dependent TRPM1 promoter luciferase signal; SK-MEL-5 TRPM1 promoter luciferase, 24 h; inhibition, % at 12.5 µM; 330,000 compounds, 0.83% hits; AID 488899;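 active means mean inhibition across replicates of 60% or more, whatever share of single replicates reaches that level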
Wnt act: activators of Wnt/beta-catenin signaling. Wnt/beta-catenin reporter cell assay, activator, plate reader. 300,000 compounds, 1.2% hits. AID 743398. activation, % at 9.35 µM; in the data active means activation above about 30%, passing the limit was not always enough
miR-122 sensor: miR-122 inhibition in Huh7 cells; Huh7 miR-122 Renilla luciferase sensor, 48 h; neutral wells = 0, positive control = 100; activation (reporter increase), % at 12.5 µM; 340,000 compounds, 0.3% hits; AID 602342;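 active means mean replicate activation score at least 90 and every replicate individually at or above 90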;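 further: higher luciferase means less miR-122 activity so hits act as miR-122 inhibitors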
PGC1a acetyl inh: modulators of PGC1a acetylation; U2OS PGC1a acetylation, AlphaScreen anti-acetyl-lysine; with virally co-expressed GCN5 acetyltransferase; inhibition, % at 15.6 µM; 350,000 compounds, 0.17% hits; AID 651687;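 active means every replicate shows inhibition of at least 40%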
UUG fidelity: yeast start codon fidelity modulation; AID 602363; activity score, % at 18.7 µM; S. cerevisiae UUG-firefly luciferase reporter, luminescence/redox ratio; 0.13% of 350,000 active;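 active means replicate mean at a twofold rise or more, about +100% in these data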;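 further: firefly luciferase made from a UUG start codon reports start codon fidelity; reporter light over untreated wells divided by growth signal over untreated wells; some hits fall short of that in this replicate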
A number is an active result; 0 = inactive; - = not tested or not shown. Only some compounds are listed: those with a hit (about 2.1% of all), similar ones and a draw of the others.

SMILES | MITF act | MITF TRPM1 inh | Wnt act | miR-122 sensor | PGC1a acetyl inh | UUG fidelity
CCOc1ccc(NC(=O)Nc2cc(OCC(F)(F)F)cc(OCC(F)(F)F)c2)cc1 | 0 | 0 | 0 | - | - | -
O=C(Nc1ccc(F)cc1)Nc1cc(OCC(F)(F)F)cc(OCC(F)(F)F)c1 | 0 | 81.1 | - | - | - | -
COc1ccc(-c2cnc3c(c2)C(=O)N([C@H](C)CO)C[C@H](C)[C@H](CN(C)C(=O)C2CCC2)O3)cc1 | - | - | - | 0 | 0 | 0
CCOc1ccc(Nc2nc3ccccc3n2C)cc1 | 95.0 | 0 | 0 | 0 | 0 | 0
CCOc1ccc(CNc2nc3ccccc3n2C)cc1 | 0 | 0 | 0 | 0 | 0 | 0
C[C@H](CO)N1C[C@H](C)[C@@H](CN(C)S(C)(=O)=O)OCCCC[C@H](C)Oc2ccc(NS(=O)(=O)c3ccc(F)cc3)cc2C1=O | - | - | - | 0 | 0 | 0
COc1cccc(S(=O)(=O)N[C@@H]2CC[C@@H](CCn3cc(-c4ccccn4)nn3)O[C@@H]2CO)c1 | - | - | - | - | 0 | 0
C[n+]1ccc(/C=C/c2ccccc2O)c2ccccc21 | 0 | 0 | 0 | - | 0 | -
CN1/C(=C/c2cc[n+](C)c3ccccc23)C=Cc2ccccc21 | 0 | 82.6 | - | - | 0 | -
C[C@@H]1CN([C@H](C)CO)C(=O)c2cc(C3=CCCC3)cnc2O[C@@H]1CN(C)C(=O)c1ccc(F)cc1 | - | - | - | 0 | 0 | 0
O=S(=O)(c1ccc2ccccc2c1)N1CCN(Cc2cccc(OCCO)c2)CC1 | - | - | - | - | - | 0
O=C(C[C@H]1C=C[C@H](NC(=O)Nc2ccccc2)[C@@H](CO)O1)NCc1ccccn1 | - | - | - | 0 | 0 | 0
C/C=C(\C)C(=O)OC1[C@H](OC(C)=O)C2(CO)C(CC1(C)C)C1=CCC3C4(C)CCC(O[C@@H]5O[C@H](C(=O)O)[C@@H](O[C@@H]6O[C@H](CO)[C@@H](O)[C@H](O)[C@H]6O)[C@H](O)[C@H]5O[C@H]5O[C@H](CO)[C@@H](O)[C@H](O)[C@H]5O)[C@](C)(CO)C4CCC3(C)[C@]1(C)C[C@H]2O (stereo partly specified) | 0 | 97.5 | - | 0 | 0 | 0
C/C=C(/C)C(=O)OC1CC(C)(C)C[C@H]2C3=CC[C@@H]4[C@@]5(C)CCC(O[C@@H]6O[C@@H](C(=O)O)[C@@H](O)C(O[C@@H]7OC[C@H](O)[C@@H](O)[C@@H]7O[C@@H]7OC(CO)C(O)[C@@H](O)[C@@H]7O)C6O[C@@H]6OC(CO)C(O)C(O)C6O)[C@@](C)(CO)[C@@H]5CC[C@]4(C)[C@]3(C)CC(O)[C@@]12CO (stereo partly specified) | 0 | 0 | - | - | - | 0
O=[N+]([O-])c1cccnc1NCCNc1ncc(C(F)(F)F)cc1Cl | 101.3 | 0 | - | 0 | 0 | 0
C[C@@H]1CCCCO[C@H](CN(C)C)[C@H](C)CN([C@@H](C)CO)C(=O)c2cc(NC(=O)Nc3ccccc3)ccc2O1 | - | - | - | 0 | 0 | 0
Cc1ccc(-c2nc3ncccc3o2)cc1NC(=O)c1ccc([N+](=O)[O-])o1 | 0 | 81.5 | - | 0 | 0 | 0
Cc1cc(-c2nc3ncccc3o2)ccc1NC(=O)c1ccc([N+](=O)[O-])o1 | 0 | 0 | 0 | 0 | 0 | 0
O=C(Nc1ccc(-c2nc3ncccc3o2)cc1)c1ccc([N+](=O)[O-])o1 | 0 | 77.1 | 0 | 0 | - | 0
O=C(Nc1ccc2oc(-c3ccncc3)nc2c1)c1ccc([N+](=O)[O-])o1 | 0 | 72.2 | 0 | - | - | 0
COCC(=O)Nc1ccc2c(c1)C(=O)N(C)[C@H]1CC[C@@H](CC(=O)NC3Cc4ccccc4C3)O[C@@H]1CO2 | - | - | - | 0 | 0 | 0
COc1cccc(C(=O)Cn2c(Br)nc3c2c(=O)n(C)c(=O)n3C)c1 | 0 | 0 | 48.9 | 0 | 0 | 0
O=C1/C(=N\S(=O)(=O)c2cccs2)C([n+]2ccccc2)=C([O-])c2ccccc21 | 0 | 104.2 | 0 | - | - | -
C[C@H]1CN([C@@H](C)CO)C(=O)c2cc(C#CC3CC3)cnc2O[C@@H]1CN(C)C(=O)C1CCCCC1 | - | - | - | 0 | 0 | -
Nc1nc2nn(-c3ccccc3)nc2c(=O)[nH]1 | 0 | 0 | 0 | 0 | 0 | 0
Nc1nc2n[nH]nc2c(=O)[nH]1 | 0 | 65.2 | 0 | 0 | 0 | 0
Cc1ccccc1COC(=O)c1cc([N+](=O)[O-])ccc1N1CCOCC1 | 0 | 0 | 0 | - | - | 0
CSc1ccc(COC(=O)c2cc([N+](=O)[O-])ccc2N2CCOCC2)cc1 | 0 | 67.1 | 0 | 0 | - | -

From PubChem
